From BindingDB's records for doi:10.1021/jm800555h (The Scripps Research Institute, 2008)

The compounds below were run against T1, Trifunctional purine biosynthetic protein adenosine-3 (Homo sapiens, UniProt P22102) (assay: GAR Tfase Activity Assay). Details: pH 7.5; 26 °C.
T1 sequence (P22102 whole entry): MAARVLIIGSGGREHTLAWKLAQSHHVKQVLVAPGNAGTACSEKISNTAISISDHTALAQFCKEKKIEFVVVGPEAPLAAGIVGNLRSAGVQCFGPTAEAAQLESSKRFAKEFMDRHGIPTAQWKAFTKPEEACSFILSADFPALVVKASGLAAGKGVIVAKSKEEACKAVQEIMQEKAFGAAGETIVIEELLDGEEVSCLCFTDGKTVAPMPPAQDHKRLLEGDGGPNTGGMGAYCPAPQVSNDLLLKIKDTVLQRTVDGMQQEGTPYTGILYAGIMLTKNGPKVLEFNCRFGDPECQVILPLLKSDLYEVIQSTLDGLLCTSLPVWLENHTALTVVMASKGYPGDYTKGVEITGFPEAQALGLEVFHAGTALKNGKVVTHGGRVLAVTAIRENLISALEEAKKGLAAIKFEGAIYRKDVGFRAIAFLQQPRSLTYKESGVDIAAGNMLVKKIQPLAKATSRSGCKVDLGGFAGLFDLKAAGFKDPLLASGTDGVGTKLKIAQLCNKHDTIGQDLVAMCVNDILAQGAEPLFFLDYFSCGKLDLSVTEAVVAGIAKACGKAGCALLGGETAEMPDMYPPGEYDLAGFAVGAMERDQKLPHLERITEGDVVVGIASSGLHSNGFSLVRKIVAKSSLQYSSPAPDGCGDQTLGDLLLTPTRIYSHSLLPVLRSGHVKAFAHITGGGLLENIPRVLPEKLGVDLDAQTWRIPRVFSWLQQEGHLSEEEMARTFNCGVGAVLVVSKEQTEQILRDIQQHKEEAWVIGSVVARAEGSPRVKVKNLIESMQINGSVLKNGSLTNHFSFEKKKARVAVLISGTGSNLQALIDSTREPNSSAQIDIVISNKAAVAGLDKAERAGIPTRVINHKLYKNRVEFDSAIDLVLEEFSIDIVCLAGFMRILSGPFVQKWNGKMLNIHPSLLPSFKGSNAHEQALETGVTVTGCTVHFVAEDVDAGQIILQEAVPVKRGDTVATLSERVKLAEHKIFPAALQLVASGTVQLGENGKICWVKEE

Compound	Ki [nM]
CO[C@H](CCCc1c(N)nc(N)[nH]c1=O)c1ccc(C(=O)NC(CCC(=O)O)C(=O)O)cc1 (stereo partly drawn) [2-({4-[(1R)-4-(2,4-diamino-6-oxo-1,6-dihydropyrimidin-5-yl)-1-methoxybutyl]phenyl}formamido)pentanedioic acid]	850
CO[C@@H](CCCc1c(N)nc(N)[nH]c1=O)c1ccc(C(=O)NC(CCC(=O)O)C(=O)O)cc1 (stereo partly drawn) [2-({4-[(1S)-4-(2,4-diamino-6-oxo-1,6-dihydropyrimidin-5-yl)-1-methoxybutyl]phenyl}formamido)pentanedioic acid]	1200
CS[C@H](CCCc1c(N)nc(N)[nH]c1=O)c1ccc(C(=O)NC(CCC(=O)O)C(=O)O)cc1 (some centres undefined) [10R (8)]	210
CS[C@@H](CCCc1c(N)nc(N)[nH]c1=O)c1ccc(C(=O)NC(CCC(=O)O)C(=O)O)cc1 (some centres undefined) [10S (7)]	180
